The values that follow are results of earlier work, collected in PubChem BioAssay AID1811 (Shanghai Institute of Organic Chemistry, 2009).

This data set concerns steroid delta-isomerase. Put plainly: PubChem AID 1811. The conditions noted are these: PDB complex binding affinities from literature.

This is one part of the list. Calls of active or inactive are those of the source. Unless stated, no cut-off for active and inactive is given here.

In the case of `C[C@]12CCc3c(ccc4cc(O)ccc34)[C@@H]1CCC2=O`, the call was active.
